# Source: PubChem BioAssay (NCI)
#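 Where inhibition never reached the appropriate level, the endpoint shown equals the highest concentration tested. Otherwise, values were interpolated linearly from a five-concentration, 48-hour dose response in 96-well plates. Here, GI50 denotes the concentration required for 50% inhibition of growth. Definition used: TGI = concentration required for complete inhibition of growth.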
# Tests used:
# Assay in all cases: DTP human tumour cell line panel, 48 h
# UACC-257 melanoma = tested on: UACC-257 melanoma
# MALME-3M melanoma = tested on: MALME-3M melanoma
# NCI-H322M lung = tested on: NCI-H322M lung
# 786-0 renal = tested on: 786-0 renal
# HT29 colon = tested on: HT29 colon
# MDA-N = tested on: MDA-N
# PC-3 prostate = tested on: PC-3 prostate
# HCT-15 colon = tested on: HCT-15 colon
# CAKI-1 renal = tested on: CAKI-1 renal
# UO-31 renal = tested on: UO-31 renal
# SK-MEL-5 melanoma = tested on: SK-MEL-5 melanoma
# HS 578T breast = tested on: HS 578T breast
# M14 melanoma = tested on: M14 melanoma
# NCI-H23 lung = tested on: NCI-H23 lung
# BT-549 breast = tested on: BT-549 breast
# HCC-2998 colon = tested on: HCC-2998 colon
# NCI-H460 lung = tested on: NCI-H460 lung
# KM12 colon = tested on: KM12 colon
# OVCAR-8 ovarian = tested on: OVCAR-8 ovarian
# EKVX NSCLC = tested on: EKVX NSCLC
# DU-145 prostate = tested on: DU-145 prostate
# RXF 393 renal = tested on: RXF 393 renal
# MDA-MB-435 = tested on: MDA-MB-435
# HCT-116 colon = tested on: HCT-116 colon
# SNB-75 CNS = tested on: SNB-75 CNS
# NCI/ADR-RES ovarian = tested on: NCI/ADR-RES ovarian
# T-47D breast = tested on: T-47D breast
# OVCAR-5 ovarian = tested on: OVCAR-5 ovarian
# SK-MEL-28 melanoma = tested on: SK-MEL-28 melanoma
# UACC-62 melanoma = tested on: UACC-62 melanoma
# K-562 leukemia = tested on: K-562 leukemia
# A549 NSCLC = tested on: A549 NSCLC
# CCRF-CEM leukemia = tested on: CCRF-CEM leukemia
# COLO 205 colon = tested on: COLO 205 colon
# SF-295 CNS = tested on: SF-295 CNS
# HL-60(TB) leukemia = tested on: HL-60(TB) leukemia
# SF-268 CNS = tested on: SF-268 CNS
# SK-MEL-2 melanoma = tested on: SK-MEL-2 melanoma
# U251 CNS = tested on: U251 CNS
# SN12C renal = tested on: SN12C renal
# HOP-62 NSCLC = tested on: HOP-62 NSCLC
# SW-620 colon = tested on: SW-620 colon
# TK-10 renal = tested on: TK-10 renal
# SK-OV-3 ovarian = tested on: SK-OV-3 ovarian
# SR leukemia = tested on: SR leukemia
# ACHN renal = tested on: ACHN renal
# NCI-H522 lung = tested on: NCI-H522 lung
# MCF7 breast = tested on: MCF7 breast
# IGROV1 ovarian = tested on: IGROV1 ovarian
# MDA-MB-231 breast = tested on: MDA-MB-231 breast
# OVCAR-4 ovarian = tested on: OVCAR-4 ovarian
# RPMI-8226 leukemia = tested on: RPMI-8226 leukemia
# MOLT-4 leukemia = tested on: MOLT-4 leukemia
# A498 renal = tested on: A498 renal
# SNB-19 CNS = tested on: SNB-19 CNS
# NCI-H226 lung = tested on: NCI-H226 lung
# LOX IMVI melanoma = tested on: LOX IMVI melanoma
# OVCAR-3 ovarian = tested on: OVCAR-3 ovarian
# HOP-92 NSCLC = tested on: HOP-92 NSCLC
smiles,measurement,setting,value
O=C(NCCC(F)([N+](=O)[O-])[N+](=O)[O-])NCCC(F)([N+](=O)[O-])[N+](=O)[O-],GI50,UACC-257 melanoma,12.8 µM
same,TGI,UACC-257 melanoma,28.1 µM
same,GI50,MALME-3M melanoma,3.46 µM
same,TGI,MALME-3M melanoma,19.4 µM
same,GI50,NCI-H322M lung,22.1 µM
same,TGI,NCI-H322M lung,62.2 µM
same,GI50,786-0 renal,0.904 µM
same,TGI,786-0 renal,11.6 µM
same,GI50,HT29 colon,4.52 µM
same,TGI,HT29 colon,32.6 µM
same,GI50,MDA-N,1.65 µM
same,TGI,MDA-N,5.15 µM
same,GI50,PC-3 prostate,12.6 µM
same,TGI,PC-3 prostate,29.2 µM
same,GI50,HCT-15 colon,3.33 µM
same,TGI,HCT-15 colon,34.7 µM
same,GI50,CAKI-1 renal,2.63 µM
same,TGI,CAKI-1 renal,7.03 µM
same,GI50,UO-31 renal,4.75 µM
same,TGI,UO-31 renal,19.1 µM
same,GI50,SK-MEL-5 melanoma,5.76 µM
same,TGI,SK-MEL-5 melanoma,22 µM
same,GI50,HS 578T breast,18.3 µM
same,TGI,HS 578T breast,62.5 µM
same,GI50,M14 melanoma,4.62 µM
same,TGI,M14 melanoma,25.6 µM
same,GI50,NCI-H23 lung,14.4 µM
same,TGI,NCI-H23 lung,51.2 µM
same,GI50,BT-549 breast,4.18 µM
same,TGI,BT-549 breast,32 µM
same,GI50,HCC-2998 colon,14.5 µM
same,TGI,HCC-2998 colon,36.3 µM
same,GI50,NCI-H460 lung,9.89 µM
same,TGI,NCI-H460 lung,> 100 µM
same,GI50,KM12 colon,11 µM
same,TGI,KM12 colon,47.6 µM
same,GI50,OVCAR-8 ovarian,9.02 µM
same,TGI,OVCAR-8 ovarian,53.2 µM
same,GI50,EKVX NSCLC,3.6 µM
same,TGI,EKVX NSCLC,29 µM
same,GI50,DU-145 prostate,11.6 µM
same,TGI,DU-145 prostate,25.8 µM
same,GI50,RXF 393 renal,9.29 µM
same,TGI,RXF 393 renal,40.4 µM
same,GI50,MDA-MB-435,2.14 µM
same,TGI,MDA-MB-435,8.51 µM
same,GI50,HCT-116 colon,5.48 µM
same,TGI,HCT-116 colon,25.4 µM
same,GI50,SNB-75 CNS,11.9 µM
same,TGI,SNB-75 CNS,50.4 µM
same,GI50,NCI/ADR-RES ovarian,8.33 µM
same,TGI,NCI/ADR-RES ovarian,59 µM
same,GI50,T-47D breast,3.33 µM
same,TGI,T-47D breast,15.7 µM
same,GI50,OVCAR-5 ovarian,22.7 µM
same,TGI,OVCAR-5 ovarian,47.9 µM
same,GI50,SK-MEL-28 melanoma,13.7 µM
same,TGI,SK-MEL-28 melanoma,51.3 µM
same,GI50,UACC-62 melanoma,7.77 µM
same,TGI,UACC-62 melanoma,23.5 µM
same,GI50,K-562 leukemia,0.837 µM
same,TGI,K-562 leukemia,35.4 µM
same,GI50,A549 NSCLC,10.8 µM
same,TGI,A549 NSCLC,31.9 µM
same,GI50,CCRF-CEM leukemia,2.75 µM
same,TGI,CCRF-CEM leukemia,29.6 µM
same,GI50,COLO 205 colon,1.95 µM
same,TGI,COLO 205 colon,4.21 µM
same,GI50,SF-295 CNS,17.3 µM
same,TGI,SF-295 CNS,35.9 µM
same,GI50,HL-60(TB) leukemia,0.947 µM
same,TGI,HL-60(TB) leukemia,3.35 µM
same,GI50,SF-268 CNS,16.7 µM
same,TGI,SF-268 CNS,67 µM
same,GI50,SK-MEL-2 melanoma,17.1 µM
same,TGI,SK-MEL-2 melanoma,37.2 µM
same,GI50,U251 CNS,19.5 µM
same,TGI,U251 CNS,58.8 µM
same,GI50,SN12C renal,14.2 µM
same,TGI,SN12C renal,32.1 µM
same,GI50,HOP-62 NSCLC,12.7 µM
same,TGI,HOP-62 NSCLC,36.5 µM
same,GI50,SW-620 colon,2.48 µM
same,TGI,SW-620 colon,34.5 µM
same,GI50,TK-10 renal,2.37 µM
same,TGI,TK-10 renal,18.8 µM
same,GI50,SK-OV-3 ovarian,27.3 µM
same,TGI,SK-OV-3 ovarian,63.2 µM
same,GI50,SR leukemia,0.568 µM
same,TGI,SR leukemia,4.67 µM
same,GI50,ACHN renal,2.14 µM
same,TGI,ACHN renal,9.44 µM
same,GI50,NCI-H522 lung,1.19 µM
same,TGI,NCI-H522 lung,14.2 µM
same,GI50,MCF7 breast,9.43 µM
same,TGI,MCF7 breast,42.7 µM
same,GI50,IGROV1 ovarian,3.86 µM
same,TGI,IGROV1 ovarian,11.8 µM
same,GI50,MDA-MB-231 breast,14.7 µM
same,TGI,MDA-MB-231 breast,35 µM
same,GI50,OVCAR-4 ovarian,11.6 µM
same,TGI,OVCAR-4 ovarian,57 µM
same,GI50,RPMI-8226 leukemia,1.81 µM
same,TGI,RPMI-8226 leukemia,6 µM
same,GI50,MOLT-4 leukemia,3.01 µM
same,TGI,MOLT-4 leukemia,29.4 µM
same,GI50,A498 renal,12.8 µM
same,TGI,A498 renal,89.4 µM
same,GI50,SNB-19 CNS,25.3 µM
same,TGI,SNB-19 CNS,57.2 µM
same,GI50,NCI-H226 lung,20.3 µM
same,TGI,NCI-H226 lung,55.4 µM
same,GI50,LOX IMVI melanoma,8.57 µM
same,TGI,LOX IMVI melanoma,41.5 µM
same,GI50,OVCAR-3 ovarian,6.38 µM
same,TGI,OVCAR-3 ovarian,24.6 µM
same,GI50,HOP-92 NSCLC,4.64 µM
same,TGI,HOP-92 NSCLC,21.4 µM
